From patent publication US12091776B2, “Protease activity profiling via programmable phage display of comprehensive proteome-scale peptide libraries” (THE JOHNS HOPKINS UNIVERSITY, priority 2019, dated 2024)

B1: MSDIEEVVEEYEEEEQEEAAVEEQEEAAEEDAEAEAETEETRAEEDEEEEEAKEAEDGPMEESKPKPRSFMPNLVPPKIPDGERVDFDDI (protein, listed as Homo sapiens)
chain: MSDIEEVVEEYEEEEQEEAAVEEQEEAAEEDAEAEAETEETRAEEDEEEEEAKEAEDGPMEESKPKPRSFMPNLVPPKIPDGERVDFDDI
B2: SLEALGMPRAYRLPSSFERVPCQTESSGPVPTIDRAGTEFDMAAKHLQSQSTPQAQARSKGSVALMNEKQKPHLQGSELRTEKLLSEGL (protein, listed as Homo sapiens)
chain: SLEALGMPRAYRLPSSFERVPCQTESSGPVPTIDRAGTEFDMAAKHLQSQSTPQAQARSKGSVALMNEKQKPHLQGSELRTEKLLSEGL
B3: MSDIEEVVEEYEEEEQEEAAVEEEEDWREDEDEQEEAAEEDAEAEAETEETRAEEDEEEEEAKEAEDGPMEESKPKPRSFMPNLVPPKIP (protein, listed as Homo sapiens)
chain: MSDIEEVVEEYEEEEQEEAAVEEEEDWREDEDEQEEAAEEDAEAEAETEETRAEEDEEEEEAKEAEDGPMEESKPKPRSFMPNLVPPKIP
B4: PVTPQPRSISGPSVGVMEMRSPLLAGGSPPQPVVPAHKDKSGAPPVRSIYDDISSPGLGSTPLTSRRQPNISVMQSPLVGVTSTPGTGQS (protein, listed as Homo sapiens)
chain: PVTPQPRSISGPSVGVMEMRSPLLAGGSPPQPVVPAHKDKSGAPPVRSIYDDISSPGLGSTPLTSRRQPNISVMQSPLVGVTSTPGTGQS
B5: SSALSGSGISRMQRPSSEAQMRMVASSEVDTRMSLERDQAKSETPRVWPRSTRSTVGGAGTSWHREMLPSRPEDHPQTHLHAVKSSAATA (protein, listed as Homo sapiens)
chain: SSALSGSGISRMQRPSSEAQMRMVASSEVDTRMSLERDQAKSETPRVWPRSTRSTVGGAGTSWHREMLPSRPEDHPQTHLHAVKSSAATA
B6: PRAHPAPSMGSLRNEFWFSDGSLSDKSKCADPGLMPLPDTATGLDWTHLVDAARAFEGLDSDEELGLLCHHTSYLDQRVASFCTLTDMQH (protein, listed as Homo sapiens)
chain: PRAHPAPSMGSLRNEFWFSDGSLSDKSKCADPGLMPLPDTATGLDWTHLVDAARAFEGLDSDEELGLLCHHTSYLDQRVASFCTLTDMQH
B7: AGLGRAGDSAVLVLPPSPGPRSSRPSMDSEGGSLLLDEDSEVFKMLQENREGRAAPRQSSSFRLLQEALEAEERGGTPAFLPSSLSPQSS (protein, listed as Homo sapiens)
chain: AGLGRAGDSAVLVLPPSPGPRSSRPSMDSEGGSLLLDEDSEVFKMLQENREGRAAPRQSSSFRLLQEALEAEERGGTPAFLPSSLSPQSS
B8: MVQLRPRASRAPASAEAMVDEGQLASEEEEAEHGLLLGQPSSGAAAEPLEEDEEGDDEFDDEAPEELTFASAQAEAREEERRVRETVRRD (protein, listed as Homo sapiens)
chain: MVQLRPRASRAPASAEAMVDEGQLASEEEEAEHGLLLGQPSSGAAAEPLEEDEEGDDEFDDEAPEELTFASAQAEAREEERRVRETVRRD
B9: MGQQVGRVGEAPGLQQPQPRGIRGSSAARPSGRRRDPAGRTTETGFNIFTQHDHFASCVEDGFEGDKTGGSSPEALBRPYGCDVEPQALN (protein, listed as Homo sapiens)
chain: MGQQVGRVGEAPGLQQPQPRGIRGSSAARPSGRRRDPAGRTTETGFNIFTQHDHFASCVEDGFEGDKTGGSSPEALHRPYGCDVEPQALN
B10: VEVWIGMTIEELARAMEKNTDYVYEALLNTDIDIDSLEADSHLDEVWIKEVITKAGMKLKWSKLKQDKVRKNKDAVRRPQADPALLTPRS (protein, listed as Homo sapiens)
chain: VEVWIGMTIEELARAMEKNTDYVYEALLNTDIDIDSLEADSHLDEVWIKEVITKAGMKLKWSKLKQDKVRKNKDAVRRPQADPALLTPRS
B11: … (protein, listed as Homo sapiens)
chain: LLPRSAGRPDPQSQLPERTGAEWNPPLSFSLASRGLSGQYVTLDNRSGELHTSAQEIDREALCVEGGGGTAWSGSVSISSSPSDSCLLLL
B12: MLQKPRNRGRSGGQAERDRDWSHSGNPGASRAGEDARVLRDGFAEEAPSTSRGPGGSQGSQGPSPQGARRAQAAPAVGPRSQKQLELKVS (protein, listed as Homo sapiens)
chain: MLQKPRNRGRSGGQAERDRDWSHSGNPGASRAGEDARVLRDGFAEEAPSTSRGPGGSQGSQGPSPQGARRAQAAPAVGPRSQKQLELKVS
B13: MSDIEEVVEEYEEEEQEEQEEAAEEDAEAEAETEETRAEEDEEEEEAKEAEDGPMEESKPKPRSFMPNLVPPKIPDGERVDFDDIHRKRM (protein, listed as Homo sapiens)
chain: MSDIEEVVEEYEEEEQEEQEEAAEEDAEAEAETEETRAEEDEEEEEAKEAEDGPMEESKPKPRSFMPNLVPPKIPDGERVDFDDIHRKRM
B14: SELAQNKEELTPGAPQHQLPPVPGSPEPYPGQQAPGPEPSQPLLELTPRAPGSPRGQHEPSKPPPAGETVTGGFGAKKRKGSSQAPASK (protein, listed as Homo sapiens)
chain: SELAQNKEELTPGAPQHQLPPVPGSPEPYPGQQAPGPEPSQPLLELTPRAPGSPRGQHEPSKPPPAGETVTGGFGAKKRKGSSQAPASK
B15: … (protein, listed as Homo sapiens)
chain: ATFIRDGYNNVPSVGSLADPDYLNTPQMNTPVTLNSAAPASNSGAGVLPSPATPRFSVPTPRTPRTPRTPRGGGTASGQGSVKYDSTDQG
B16: AETEETRAEEDEEEEEAKEAEDGPMEESKPKPRSFMPNLVPPKIPDGERVDFDDIHRKRMEKDLNELQALIEAHFENRKKEEEELVSLKD (protein, listed as Homo sapiens)
chain: AETEETRAEEDEEEEEAKEAEDGPMEESKPKPRSFMPNLVPPKIPDGERVDFDDIHRKRMEKDLNELQALIEAHFENRKKEEEELVSLKD
B17: … (protein, listed as Homo sapiens)
chain: LGRLQGQPLRDGEEVVLLLEGIHREPSHAGPLDFSCNAGKSCPRADVTLEEKGCASQVPSHSPKKELPAEEPSVLGPSDEPPRPQPRAAQ
B18: … (protein, listed as Homo sapiens)
chain: DSSKPIVRESWMTELPPEMKDFGLGPRTFKRRADDTSGDRSIWTDTPADRERKAKETQEARKSSSKKDEEHILSGRDKRLAEQVSSYNES

The molecules below were run against T1, Thrombin (Homo sapiens, UniProt P00734) (assay: SEPARATE assay: human peptidome library digest with Thrombin). Settings: top 20 enriched peptides, human library (90-aa tiles); digest vs mock digest.
T1 construct: Thrombin (a serine protease); purchased SignalChem
Type: biochemical
Method: Streptavidin-coupled magnetic beads (Dynabeads M-280 Streptavidin, ThermoFisher Scientific) were washed (TBS, pH 7.4, 0.01% NP40) and resuspended in binding buffer (TBS, pH 7.4, 0.001% NP40) containing 2E9 plaque forming units per 10 μl of bead slurry. End-over-end mixing at room temperature was performed for one hour. Phage-coated beads were washed three times with wash buffer and transferred into two protein LoBind Eppendorf tubes blocked with TBS, pH 7.4 containing 1% BSA.
Protease digestions was performed in 50 μl of appropriate buffer alone or containing the protease: (a) Caspase-1/PreScission: 1×TBS, pH 7.4, 0.01% NP40, 1 mM DTT; (b) Thrombin: TBS, pH 7.4, 0.01% NP40; (c) ADAM17: Tris, pH 8.0, ZnCl2 2.5 uM, 0.005% Tween 20. Digestion occurred overnight at room temperature with end-over-end rotation. Digest reactions were quenched by addition of 100 μl TBS, pH 7.4, 0.01% NP40 containing AEBSF (2 mM), Aprotinin (0.3 μM), Bestatin (116 μM), E-64 (14 μM), Leupeptin (1 μM), and EDTA (1 mM) for thirty minutes at room temperature. To remove any residual biotinylated phage that may have been nonspecifically released, the 150 μl supernatant of the quenched digest reaction is then incubated with a fresh 10 μl of slurry volume M280 streptavidin beads (pre-washed three times with wash buffer) in a LoBind Eppendorf tube blocked with TBS, pH 7.4 containing 1% BSA at room temperature for one hour with end-over-end rotation.
10 μl slurry volume of protein G magnetic dynabeads were washed in buffer (TBS, pH 7.4, 0.01% NP40) and then resuspended in 50 μl TBS, pH 7.4, 0.01% NP40 containing 4 μg of M2 FLAG antibody for thirty minutes at room temperature with end-over-end rotation. The 150 μl quenched digest reaction is added to the 10 μl FLAG-coated Protein G beads and incubated for 60 minutes at room temperature with end-over-end rotation to capture phage particles released at the protease digest step. Beads are rinsed once with 100 μl wash buffer and stored at −80° C. until PCR amplification.
Library PCR preparation, high-throughput DNA sequencing, and peptide read count data generation was performed as described previously.^44 Briefly, library peptide inserts are amplified by resuspending 10 μl of FLAG-coated Protein G beads in PCR1 master mix containing the T7-Pep2_PCR1_F forward primer ([…]) (SEQ ID NO:3) and a T7-SEPARATE vector specific reverse primer ([…]) (SEQ ID NO:4), which includes an adapter sequence for sample-specific barcoding and Illumina P7 adapter incorporation during a subsequent PCR2 reaction. The PCR2 amplicons are pooled and sequenced using an Illumina NextSeq instrument in standard output mode to obtain single-end 50 nucleotide reads. Dual indexed sample demultiplexing and clonal read count determination were performed using exact sequence matching. […] To calculate the normalization factor, 100 peptides were randomly selected from the mock digest conditions with a read count ranging between 10 and 40. The median read count value for these 100 peptides is calculated for each sample. The random peptide selection and median calculation is performed 20 times and the average of the 20 median values is calculated for each sample. Finally, the normalization factor is calculated by dividing the average median value for each sample by that for one of the mock digest conditions. Read counts are then converted to normalized read counts by dividing each sample's read count values by the normalization factor. Fold enrichments are calculated for each peptide by dividing their normalized read counts in the digest condition by the normalized read counts in the mock digest condition. The fold enrichments can be visualized in an MA plot by transforming the normalized read count data into a log ratio (M, on the y-axis) and a mean average (A, on the x-axis) between the digest and mock digest conditions.

Molecule | Thrombi Fold Change [fold]
B1 | 10.44
B2 | 10.68
B3 | 17.66
B4 | 12.05
B5 | 15.43
B6 | 14.27
B7 | 10.76
B8 | 15.07
B9 | 11.16
B10 | 12.32
B11 | 11.53
B12 | 12.49
B13 | 11.56
B14 | 10.90
B15 | 10.80
B16 | 19.08
B17 | 10.92
B18 | 11.22
